From paper PMC5570423, “Structural characterisation of TNRC6A nuclear localisation signal in complex with importin-alpha” (PLoS ONE, 2017)

Target: mImpα1ΔIBB
Test: Solid phase plate binding assay
Parameters: species or system mouse
Conditions: MaxiSorp plates coated with 25 nM GST-cNLS, serial dilutions of S-tagged mImpα1ΔIBB, 1 hr at 4°C, S-protein-HRP/TMB read at 450 nm, duplicate, mean with standard error, one-site specific binding (Prism), read-out: Kd apparent
Experimental: Solid phase binding assays were performed as previously described, with cross-linking omitted. MaxiSorp plates (Nunc) were coated with 25 nM of GST-cNLS or GST in coating buffer (PBS supplemented with 0.2 mM phenylmethylsulfonyl fluoride (PMSF) and 2 mM DTT). Plates were blocked overnight in coating buffer supplemented with 3% BSA and 0.1% Tween 20. Serial dilutions of S-tagged mImpα1ΔIBB were added and incubated for 1 hr at 4°C. Plates were washed 3 times by immersion in coating buffer supplemented with 0.1% Tween 20, and detected with S-protein-HRP conjugate (Novagen) using 3,3’, 5, 5’-tetramethylbenzidine as a substrate. The reaction was stopped by the addition of 1 M HCl, and the signal read at 450 nm using a PHERAstar plate reader (BMG LABTECH).

Kd: 12.5 ± 1.9 nM
Substance: PKKKRKV [GST-SV40 TAg cNLS, GST fusion of the prototypic monopartite SV40 large T antigen cNLS; positive control]
